Results published in ChEMBL document CHEMBL3877330, “Synthesis and Antitumor Activity Evaluation of a Novel Combi-nitrosourea Prodrug: BGCNU” (ACS Med Chem Lett, 2017).

Experiments:
Assay type in all cases: cell-based
[1] = target: T1, Methylated-DNA--protein-cysteine methyltransferase (Homo sapiens) (UniProt P16455); test: Inhibition of AGT in human SF763 cells assessed as increase in dG-dC crosslinking at 0.1 mM incubated for 12 hrs by HPLC-ESI-MS/MS analysis relative to BCNU
T1 sequence (whole entry): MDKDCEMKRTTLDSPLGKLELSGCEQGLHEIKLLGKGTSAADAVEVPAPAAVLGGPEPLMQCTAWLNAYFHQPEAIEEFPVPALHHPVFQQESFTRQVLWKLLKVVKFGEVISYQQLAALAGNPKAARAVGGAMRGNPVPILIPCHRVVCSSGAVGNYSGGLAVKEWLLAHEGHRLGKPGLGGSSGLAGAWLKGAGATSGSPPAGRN

[2] = target: T1, Methylated-DNA--protein-cysteine methyltransferase (Homo sapiens); test: Inhibition of AGT in human SF763 cells assessed as increase in dG-dC crosslinking at 0.2 mM incubated for 12 hrs by HPLC-ESI-MS/MS analysis relative to BCNU
[3] = target: T1, Methylated-DNA--protein-cysteine methyltransferase (Homo sapiens); test: Inhibition of AGT in human SF763 cells assessed as increase in dG-dC crosslinking at 0.4 mM incubated for 12 hrs by HPLC-ESI-MS/MS analysis relative to BCNU
[4] = target: T1, Methylated-DNA--protein-cysteine methyltransferase (Homo sapiens); test: Inhibition of AGT in human SF763 cells assessed as increase in dG-dC crosslinking at 0.6 mM incubated for 12 hrs by HPLC-ESI-MS/MS analysis relative to BCNU
[5] = target: T1, Methylated-DNA--protein-cysteine methyltransferase (Homo sapiens); test: Inhibition of AGT in human SF763 cells assessed as increase in dG-dC crosslinking at 0.1 mM incubated for 12 hrs by HPLC-ESI-MS/MS analysis relative to ACNU
[6] = target: T1, Methylated-DNA--protein-cysteine methyltransferase (Homo sapiens); test: Inhibition of AGT in human SF763 cells assessed as increase in dG-dC crosslinking at 0.2 mM incubated for 12 hrs by HPLC-ESI-MS/MS analysis relative to ACNU
[7] = target: T1, Methylated-DNA--protein-cysteine methyltransferase (Homo sapiens); test: Inhibition of AGT in human SF763 cells assessed as increase in dG-dC crosslinking at 0.4 mM incubated for 12 hrs by HPLC-ESI-MS/MS analysis relative to ACNU
[8] = target: T1, Methylated-DNA--protein-cysteine methyltransferase (Homo sapiens); test: Inhibition of AGT in human SF763 cells assessed as increase in dG-dC crosslinking at 0.6 mM incubated for 12 hrs by HPLC-ESI-MS/MS analysis relative to ACNU
[9] = target: T1, Methylated-DNA--protein-cysteine methyltransferase (Homo sapiens); test: Inhibition of AGT in human SF767 cells assessed as increase in dG-dC crosslinking at 0.1 to 0.6 mM incubated for 12 hrs by HPLC-ESI-MS/MS analysis relative to BCNU
[10] = target: T1, Methylated-DNA--protein-cysteine methyltransferase (Homo sapiens); test: Inhibition of AGT in human SF767 cells assessed as increase in dG-dC crosslinking at 0.1 to 0.6 mM incubated for 12 hrs by HPLC-ESI-MS/MS analysis relative to ACNU
SF-126 [11] = test: Binding affinity to DNA in AGT-deficient human SF126 cells assessed as increase in dG-dC crosslinking at 0.1 to 0.6 mM incubated for 12 hrs by HPLC-ESI-MS/MS analysis relative to BCNU
SF-126 [12] = test: Binding affinity to DNA in AGT-deficient human SF126 cells assessed as increase in dG-dC crosslinking at 0.1 to 0.6 mM incubated for 12 hrs by HPLC-ESI-MS/MS analysis relative to ACNU

## Nc1nc(OCc2ccccc2)c2ncn(CCNC(=O)N(CCCl)N=O)c2n1
[1]
  fold change (FC): 43
[2]
  fold change (FC): 38
[3]
  fold change (FC): 28
[4]
  fold change (FC): 19
[5]
  fold change (FC): 23
[6]
  fold change (FC): 20
[7]
  fold change (FC): 20
[8]
  fold change (FC): 13
[9]
  fold change (FC): 7 to 14
[10]
  fold change (FC): 5 to 11
SF-126 [11]
  fold change (FC): 3 to 9
SF-126 [12]
  fold change (FC): 2 to 6
